Screening data: PubChem, Broad Institute
Most compounds without a hit are left out; they make up all but 1% or so of the library.
Rtt109 HAT inh: inhibitors of Candida albicans Rtt109/Vps75 histone acetyltransferase. Q5AAJ8. inhibition, % at 34.9 µM. purified Rtt109/Vps75, ThioGlo CoA-SH fluorescence, 4 h. AID 540336. 330,000 tested, 0.16% active;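 active means inhibition of at least 50% in every replicate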
UUG fidelity: alters start codon recognition fidelity in yeast; S. cerevisiae UUG-firefly luciferase reporter, luminescence/redox ratio; activity score, % at 18.7 µM; actives 0.13% (n = 350,000);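 active means replicate mean at a twofold rise or more, about +100% in these data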;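 further: firefly luciferase made from a UUG start codon reports start codon fidelity; reporter light over untreated wells divided by growth signal over untreated wells; some hits fall short of that in this replicate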
CDK5 inh: CDK5/p35 (human) kinase inhibition | Q00535+Q15078 | Recombinant CDK5/p35, ADP-Glo luminescence, 60 min | inhibition, % at 10 µM | 330,000 tested, 0.01% active;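 active means highest replicate inhibition of at least 50% and at least 75% of replicates reaching 50%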
Cneo AK release: causes C. neoformans cell lysis; AID 651654; lysis activity, % at 15 µM; adenylate kinase release luminescence, 4 h; normalised: neutral wells 0, clomiphene wells 100; 360,000 tested, 0.2% active;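 active means mean lysis activity across replicates of at least 80%, whatever share of replicates individually reach that level; inactive means mean lysis activity below 80%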
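Assay system: log-phase C. neoformans yeast / Quantity: yeast cell density of 5 × 10^6 cells/mL / Medium: fresh YPD growth medium / Compound: single dose / Timing: static 4 h at 37 °C with compound, 1 h detection / Measured by: adenylate kinase release luminescence / Read-out: lysis from increased AK signal / Benchmarks: Clomiphene as positive lysis control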
C2C12 statin: protects C2C12 myotubes from simvastatin toxicity; rescue of ATP level, % at 7.49 µM; ATP luminescence, 48 h; scaled: DMSO 0, geranylgeraniol control 100; AID 602340; 330,000 tested, 0.78% active;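 active means mean ATP rescue above about 67%, or every replicate alone reaching that limit, limit read from the data, passing the limit was not always enough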;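 further: myotubes were challenged with 10 µM simvastatin during compound exposure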
A number is an active result; . = inactive; / = no result given.

SMILES | Rtt109 HAT inh | UUG fidelity | CDK5 inh | Cneo AK release | C2C12 statin
CCOC(=O)c1ccc(N2C(=O)c3n[nH]c(C)c3C2c2ccc(OC)cc2)cc1 (configuration not stated) | 77 | . | . | . | .
C[C@@H]1CN([C@H](C)CO)C(=O)c2cc(N(C)C)ccc2O[C@@H](C)CCCCO[C@H]1CN(C)C(=O)Nc1ccccc1 | / | / | / | / | .
CC(C)C#Cc1ccc([C@H]2[C@H](CO)N3CCCCN(C(=O)c4ccc5c(c4)OCO5)C[C@@H]23)cc1 | / | . | / | . | /
O=C(c1ccc2c(c1)OCO2)N1CCCCN2[C@H](C1)[C@H](c1ccc(-c3ccccc3)cc1)[C@@H]2CO | / | . | / | . | /
CC(C)C#Cc1ccc([C@@H]2[C@H](CO)N3CCCCN(C(=O)c4ccc5c(c4)OCO5)C[C@@H]23)cc1 | / | . | / | 111 | /
Cc1cccc(-c2ccc([C@@H]3[C@H]4CN(C(=O)c5ccc6c(c5)OCO6)CCCCN4[C@H]3CO)cc2)c1 | / | . | / | 86 | .
C[C@@H]1CN([C@H](C)CO)C(=O)Cc2cc(NC(=O)CCN3CCOCC3)ccc2O[C@H]1CN(C)C(=O)Nc1ccc2c(c1)OCO2 | / | . | / | . | .
CN(C)CCCNC(=O)C[C@@H]1C=C[C@H](NC(=O)Cc2cccnc2)[C@@H](CO)O1 | / | . | / | . | .
C[C@H](CO)N1C[C@H](C)[C@@H](CN(C)C(=O)Nc2ccc3c(c2)OCO3)Oc2ccc(NC(=O)Nc3ccccc3)cc2CC1=O | / | . | / | . | .
CCCS(=O)(=O)N1CCCC(C(=O)NCCN2CCC(Cc3ccccc3)CC2)C1 (configuration not stated) | . | . | . | . | 117
CCCS(=O)(=O)N1CCCC(C(=O)NCCN(C)Cc2ccccc2)C1 (configuration not stated) | . | . | . | . | .
C#CCN(C(=O)c1ccc(OC2CCN(C(=O)CCOC)CC2)cc1)C1CCCCC1 | . | . | . | 103 | .
C[C@@H]1CN([C@@H](C)CO)S(=O)(=O)c2ccc(C#Cc3ccccn3)cc2O[C@H]1CN(C)Cc1ccccc1 | / | . | / | 101 | .
C[C@@H]1CN([C@H](C)CO)S(=O)(=O)c2ccc(C#Cc3ccccn3)cc2O[C@H]1CN(C)Cc1ccccc1 | / | . | / | 91 | .
C[C@H](CO)N1C[C@H](C)[C@@H](CN(C)S(C)(=O)=O)Oc2ccc(NC(=O)CCCCCC(=O)Nc3ccccc3N)cc2CC1=O | / | . | / | . | .
COC(=O)c1ccc(N2C(=O)CC(N(C)Cc3ccccc3)C2=O)cc1 (configuration not stated) | . | . | . | . | 87
CCOc1ccc(N2C(=O)CC(N(C)Cc3ccccc3)C2=O)cc1 (configuration not stated) | . | / | . | / | /
O=C(c1cnc2n(c1=O)CCS2)N1CCN(C(c2ccccc2)c2ccc(Cl)cc2)CC1 (configuration not stated) | . | . | . | . | 76
COc1cc(C)c(S(=O)(=O)N2CCN=C2c2ccccc2)cc1C | . | / | . | / | /
Cc1cc(C)c(S(=O)(=O)N2CCN=C2c2ccccc2)cc1C | . | . | . | . | 99
C[C@H]1CN([C@@H](C)CO)C(=O)c2cccc(NC(=O)c3cnccn3)c2O[C@H]1CN(C)Cc1ccc2c(c1)OCO2 | / | . | / | . | .
CCC(=O)N(C)C[C@@H]1Oc2cc(C#CC3CC3)ccc2S(=O)(=O)N([C@H](C)CO)C[C@@H]1C | / | . | / | . | .
N#CCCN1CCN(Cn2c3ccccc3c3ccccc32)CC1 | . | . | . | . | 114
CN1CCN(C(=O)[C@H]2[C@H](CO)[C@H]3Cn4c(ccc(C5=CCCCC5)c4=O)[C@@H]2N3S(C)(=O)=O)CC1 | / | / | / | . | .
O=C(C[C@H]1C=C[C@H](NC(=O)Nc2cc(F)ccc2F)[C@@H](CO)O1)NCCCN1CCOCC1 | / | . | / | 121 | .
O=C(C[C@@H]1C=C[C@@H](NC(=O)c2cccc(F)c2)[C@H](CO)O1)NCCN1CCCC1 | / | . | / | 95 | .
CCCNC(=O)[C@@H]1[C@@H](CO)[C@@H]2Cn3c(cccc3=O)[C@@H]2N1C(=O)C1CCC1 | / | . | / | . | .
O=C(O)CCC(=O)OCC1CCCCC1 | . | . | . | . | 114
COCC(=O)Nc1ccc2c(c1)[C@H]1C[C@H](CC(=O)NCCN3CCCCC3)O[C@@H](CO)[C@H]1O2 | / | . | / | . | .
O=C1Nc2cc(C(=O)NCCCN3CCCC3)ccc2S/C1=C/c1ccccc1F | . | . | . | . | .
